{"source": "patent US20140303084", "system": "conjugate A"}
{"substance": "thrombin", "values": [{"measurement": "cleavage of conjugate A (10 µM) by 1.4 nM thrombin, HPLC", "result": "the conjugate was fully cleaved after about 60 min of incubation"}]}
